B1: Cerebral cavernous malformations 2 protein (Homo sapiens), Q9BSQ5 (parent)
chain: MEEEGKKGKKPGIVSPFKRVFLKGEKSRDKKAHEKVTERRPLHTVVLSLPERVEPDRLLSDYIEKEVKYLGQLTSIPGYLNPSSRTEILHFIDNAKRAHQLPGHLTQEHDAVLSLSAYNVKLAWRDGEDIILRVPIHDIAAVSYVRDDAAHLVVLKTAQDPGISPSQSLCAESSRGLSAGSLSESAVGPVEACCLVILAAESKVAAEELCCLLGQVFQVVYTESTIDFLDRAIFDGASTPTHHLSLHSDDSSTKVDIKETYEVEASTFCFPESVDVGGASPHSKTISESELSASATELLQDYMLTLRTKLSSQEIQQFAALLHEYRNGASIHEFCINLRQLYGDSRKFLLLGLRPFIPEKDSQHFENFLETIGVKDGRGIITDSFGRHRRALSTTSSSTTNGNRATGSSDDRSAPSEGDEWDRMISDISSDIEALGCSMDQDSA

Variants of B1 are the subject of test [1]. To be noted: with krit1_human KRIT1, O00522.
The variants in test [2] derive from B1. To be noted: with krit1_human KRIT1, O00522. This is another data set of the same source.

We go through three variants from IntAct's records for PubMed 25525273.

As for MEEEGKKGKKPGIVSPFKRVFLKGEKSRDKKAHEKVTERRPLHTVVLSLPERVEPDRLLSDYIEKEVKYLGQLTSIPGYLNPSSRTEILHFIDNAKRAHQLPGHLTQEHDAVLSLSAYNVKLAWRDGEDIILRVPIHDIAAVSYVRDDAAHLVVLKTAQDPGISPSQSLCAESSRGLSAGSLSESAVGPVEACCLVILAAESKVAAEELCCLLGQVAQVVYTESTIDFLDRAIFDGASTPTHHLSLHSDDSSTKVDIKETYEVEASTFCFPESVDVGGASPHSKTISESELSASATELLQDYMLTLRTKLSSQEIQQFAALLHEYRNGASIHEFCINLRQLYGDSRKFLLLGLRPFIPEKDSQHFENFLETIGVKDGRGIITDSFGRHRRALSTTSSSTTNGNRATGSSDDRSAPSEGDEWDRMISDISSDIEALGCSMDQDSA [F217A], the “effect of a mutation on the interaction” value in test [1] is listed as “decreasing interaction strength”.

MEEEGKKGKKPGIVSPFKRVFLKGEKSRDKKAHEKVTERRPLHTVVLSLPERVEPDRLLSDYIEKEVKYLGQLTSIPGYLNPSSRTEILHFIDNAKRAHQLPGHLTQEHDAVLSLSAYNVKLAWRDGEDIILRVPIHDIAAVSYVRDDAAHLVVLKTAQDPGISPSQSLCAESSRGLSAGSLSESAVGPVEACCLVILAAESKVAAEELDCLLGQVFQVVYTESTIDFLDRAIFDGASTPTHHLSLHSDDSSTKVDIKETYEVEASTFCFPESVDVGGASPHSKTISESELSASATELLQDYMLTLRTKLSSQEIQQFAALLHEYRNGASIHEFCINLRQLYGDSRKFLLLGLRPFIPEKDSQHFENFLETIGVKDGRGIITDSFGRHRRALSTTSSSTTNGNRATGSSDDRSAPSEGDEWDRMISDISSDIEALGCSMDQDSA [C210D]: the “effect of a mutation on the interaction” value is “disrupting interaction strength” in test [2] and “decreasing interaction strength” in test [1].

MEEEGKKGKKPGIVSPFKRVFLKGEKSRDKKAHEKVTERRPLHTVVLSLPERVEPDRLLSDYIEKEVKYLGQLTSIPGYLNPSSRTEILHFIDNAKRAHQLPGHLTQEHDAVLSLSAYNVKLAWRDGEDIILRVPAHDAAAVSYVRDDAAHLVVLKTAQDPGISPSQSLCAESSRGLSAGSLSESAVGPVEACCLVILAAESKVAAEELCCLLGQVFQVVYTESTIDFLDRAIFDGASTPTHHLSLHSDDSSTKVDIKETYEVEASTFCFPESVDVGGASPHSKTISESELSASATELLQDYMLTLRTKLSSQEIQQFAALLHEYRNGASIHEFCINLRQLYGDSRKFLLLGLRPFIPEKDSQHFENFLETIGVKDGRGIITDSFGRHRRALSTTSSSTTNGNRATGSSDDRSAPSEGDEWDRMISDISSDIEALGCSMDQDSA [I136A;I139A]: the figures for the “effect of a mutation on the interaction” value in test [2] and in test [1] were “disrupting interaction strength” and “decreasing interaction strength”, respectively.
